Experimental findings from patent US8034574B2, “Screening method for prokinetic agent” (Astellas Pharma Inc., priority 2006, dated 2011) are described below.

Chains of the proteins cited; added tags and fusions are not shown.
UniProt O75762, whole entry R3C/R58T/K186N: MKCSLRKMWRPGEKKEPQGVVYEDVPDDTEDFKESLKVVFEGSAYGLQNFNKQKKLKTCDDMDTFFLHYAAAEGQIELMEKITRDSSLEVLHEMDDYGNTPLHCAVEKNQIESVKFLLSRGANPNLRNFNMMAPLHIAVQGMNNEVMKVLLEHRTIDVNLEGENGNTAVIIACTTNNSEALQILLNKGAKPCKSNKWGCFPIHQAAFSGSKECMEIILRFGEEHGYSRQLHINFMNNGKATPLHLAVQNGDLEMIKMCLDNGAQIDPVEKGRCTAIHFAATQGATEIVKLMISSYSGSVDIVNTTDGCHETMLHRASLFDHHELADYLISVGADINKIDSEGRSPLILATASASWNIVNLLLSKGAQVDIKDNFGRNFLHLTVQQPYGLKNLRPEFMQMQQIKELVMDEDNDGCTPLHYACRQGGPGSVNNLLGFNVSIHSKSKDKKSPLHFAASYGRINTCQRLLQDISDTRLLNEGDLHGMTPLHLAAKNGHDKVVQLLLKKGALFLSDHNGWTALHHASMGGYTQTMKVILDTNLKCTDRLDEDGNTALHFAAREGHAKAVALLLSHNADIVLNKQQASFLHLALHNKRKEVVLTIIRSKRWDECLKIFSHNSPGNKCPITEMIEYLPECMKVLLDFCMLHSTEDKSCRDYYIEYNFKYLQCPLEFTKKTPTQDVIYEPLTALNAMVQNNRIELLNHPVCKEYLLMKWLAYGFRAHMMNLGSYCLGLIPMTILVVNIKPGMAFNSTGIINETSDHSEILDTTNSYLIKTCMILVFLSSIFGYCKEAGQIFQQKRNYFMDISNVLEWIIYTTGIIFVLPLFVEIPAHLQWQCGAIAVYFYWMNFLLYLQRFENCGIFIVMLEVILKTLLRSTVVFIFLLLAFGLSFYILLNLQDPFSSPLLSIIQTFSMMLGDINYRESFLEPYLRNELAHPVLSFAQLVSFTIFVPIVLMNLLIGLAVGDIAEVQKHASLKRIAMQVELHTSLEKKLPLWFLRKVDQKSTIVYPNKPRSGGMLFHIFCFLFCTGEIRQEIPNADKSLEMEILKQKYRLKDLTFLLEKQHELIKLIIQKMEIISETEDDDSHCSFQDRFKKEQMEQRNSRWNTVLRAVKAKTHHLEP

For the assay, the target named is T1, human TRPA1 (polypeptide of SEQ ID NO:2) (Homo sapiens, UniProt O75762, K186N/R3C/R58T).
T1 construct: expressed in transfected cells; host or cells: CHO-K1 cells, transient transfection of the pcDNA3.1(+) human TRPA1 vector
Kind of assay: Intracellular calcium by FLIPR in CHO-K1 cells expressing human TRPA1 (activator screening). It counts as cell-based. Background: Calcium flux is commonly read through the fluorescence of an indicator in the cells.

One may read the EC50 as the concentration giving half of the maximal effect. `O=C/C=C/c1ccccc1` [cinnamic aldehyde]: the EC50 was 22.5 µM. Moreover, where the note is “CHO-K1 cells expressing human TRPA1, FLIPR, Fluo3-AM”, the “change in intracellular calcium concentration” value is recorded as “responded specifically (elevation of intracellular calcium concentration)”.
